The record followed here is publication PMC3988539 (Neuropsychopharmacology : official publication of the …, 2013).

Chains of the proteins cited; added tags and fusions are not shown.
UniProt P31652, whole entry: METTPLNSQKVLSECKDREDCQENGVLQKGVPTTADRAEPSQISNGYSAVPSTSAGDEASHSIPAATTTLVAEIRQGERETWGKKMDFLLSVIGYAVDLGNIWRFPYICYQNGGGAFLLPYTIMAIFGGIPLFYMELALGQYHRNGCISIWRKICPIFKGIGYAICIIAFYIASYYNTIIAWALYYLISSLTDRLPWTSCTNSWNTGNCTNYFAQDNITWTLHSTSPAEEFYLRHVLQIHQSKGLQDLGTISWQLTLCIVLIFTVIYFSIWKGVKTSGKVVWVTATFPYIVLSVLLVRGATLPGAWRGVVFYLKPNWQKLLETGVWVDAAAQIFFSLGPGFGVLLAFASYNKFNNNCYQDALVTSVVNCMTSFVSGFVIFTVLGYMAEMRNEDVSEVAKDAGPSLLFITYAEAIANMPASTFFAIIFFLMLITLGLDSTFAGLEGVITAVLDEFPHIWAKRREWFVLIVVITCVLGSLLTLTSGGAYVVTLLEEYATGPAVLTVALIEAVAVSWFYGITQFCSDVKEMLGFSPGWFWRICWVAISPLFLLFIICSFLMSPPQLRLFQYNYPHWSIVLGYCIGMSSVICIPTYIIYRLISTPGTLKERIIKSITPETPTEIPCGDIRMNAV

The assay has as its target SERT (Rattus norvegicus, UniProt P31652). Put plainly: In vitro [3H]5-HT release from rat brain synaptosomes. The conditions noted are these: read-out: Emax of 5-HT release.

Where a name gives a salt, the structure may show the parent alone.

In general, Emax refers to the size of the effect at its maximum, as opposed to the concentration needed. Take `CCN[C@@H](C)Cc1cccc(C(F)(F)F)c1` [d-fenfluramine, (+)-N-ethyl-1-[3-(trifluoromethyl)phenyl]propan-2-amine hydrochloride]: the Emax was 100%.
